Values quoted from earlier work as cited in patent US11142520B2, “LDHA activity inhibitors” (ARCTIC PHARMA AS, priority 2017, dated 2021).

Tested on: LDHA
Details: rapid clearance; cited from earlier work

Compound: O=C1CC(c2ccc(N3CCOCC3)cc2)(c2ccsc2)NC(=O)C1Sc1ccccc1Cl (stereo not shown) [Example 24, 3-((2-chlorophenyl)thio)-6-(4-morpholinophenyl)-6-(thiophen-3-yl)piperidine-2,4-dione]
- duration of sustained inhibition of LDHA in vivo: ≤ 1 h
